Results on one molecule are retold here after patent US11319310B2, “Heterocyclyl-substituted oxadiazolopyridine derivatives for use as ghrelin O-acyl transferase (GOAT) inhibitors” (Boehringer Ingelheim International GmbH, priority 2018, dated 2022).

Chains of the proteins cited; added tags and fusions are not shown.
UniProt Q96T53, whole entry: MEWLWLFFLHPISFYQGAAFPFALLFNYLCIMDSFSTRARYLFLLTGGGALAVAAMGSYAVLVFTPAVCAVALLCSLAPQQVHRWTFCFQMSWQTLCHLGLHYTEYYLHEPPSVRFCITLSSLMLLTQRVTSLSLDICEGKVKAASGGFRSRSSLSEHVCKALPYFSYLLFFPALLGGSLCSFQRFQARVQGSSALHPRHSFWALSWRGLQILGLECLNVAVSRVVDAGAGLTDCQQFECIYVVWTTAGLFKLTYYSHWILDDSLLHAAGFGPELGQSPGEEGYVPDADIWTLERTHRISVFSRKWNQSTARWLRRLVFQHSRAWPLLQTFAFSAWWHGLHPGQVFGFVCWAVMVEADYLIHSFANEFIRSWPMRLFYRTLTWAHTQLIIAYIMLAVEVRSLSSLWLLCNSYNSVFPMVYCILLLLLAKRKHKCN

This test has as its target human GOAT (Homo sapiens, UniProt Q96T53). Kind of test: Determination of hGOAT activity in HEK293 cells after incubation with test compound (acyl-ghrelin ELISA). Particulars: HEK293 cells stably transfected with preproghrelin and human GOAT; octanoate-BSA 100 μM, 5 hours incubation; acyl-ghrelin in medium by ELISA; 8 compound concentrations. On the procedure: Determination of hGOAT Activity in HEK293 Cells after Incubation with Test Compound
HEK293 cells stably transfected with two expression vectors, one coding for preproghrelin cDNA and a second for the expression of human GOATcDNA are used as a cellular model. After feeding the cells with octanoic acid for 5 hours, acyl-ghrelin is measured in cell culture medium by an ELISA procedure.
Cellline: Hek293 hGOAT/PPGhrl Clone #1B8 Sodium octanoate, Sigma, Cat.-No. C5038 […]
Cells are plated with a density of 5000 cells/well in 384-well poly-D-lysin plates and incubated for 1 day at 37° C., 5% CO2 in DMEM medium, 10% FCS, 1×NEAA, Puromycin (0.5 μg/ml) and G418 (1 mg/ml). […] After incubation for 5 hours acylghrelin in the medium is measured by ELISA.
The medium sample is diluted 1:25 in Elisa buffer, a 25 μl aliquot is transferred to a 384-well ELISA plate previously washed 4 times with 100 μL wash buffer, and 25 μl tracer-solution is added. […] The absorbance is measured at 405 nm in an Envision multilabel reader and the amount of acylated ghrelin is calculated according to a acylated ghrelin standard curve provided in the same plate. […]
IC50 values are calculated with Assay Explorer or other suited software based on curve fitting of results of 8 different compound concentrations.

As for `Cc1cc(OC2CCN(Cc3c(C)nc4nonc4c3N)C2)ccn1` (stereo not shown), the IC50 is 1.2 nM.
